Residues, ends and D or L forms follow the SMILES beside them. *: point of attachment. Fluorescein(5-Mal) = O=C1OC2(c3ccc(O)cc3Oc3cc(O)ccc32)c2ccc(N3C(=O)CC(*)C3=O)cc21
Test system: human laryngeal nerve sections
Experiment: Dose response of FAM-HNP401 by topical application on human nerve sections, confocal

With `CC(=O)N[C@@H](CO)C(=O)NCC(=O)N[C@@H](CCC(N)=O)C(=O)N[C@H](C(=O)N1CCC[C@H]1C(=O)N[C@@H](Cc1c[nH]c2ccccc12)C(=O)N[C@@H](CCC(=O)O)C(=O)N[C@@H](CCC(=O)O)C(=O)N1CCC[C@H]1C(=O)N[C@@H](Cc1ccc(O)cc1)C(=O)N[C@@H](Cc1ccc(O)cc1)C(=O)N[C@H](C(=O)N[C@H](C(=O)N[C@@H](CCCCN)C(=O)N[C@@H](CCCCN)C(=O)N[C@@H](CO)C(=O)N[C@@H](CO)C(=O)NCC(=O)NCC(=O)N[C@@H](CSC1CC(=O)N(c2ccc3c(c2)C(=O)OC32c3ccc(O)cc3Oc3cc(O)ccc32)C1=O)C(N)=O)C(C)C)C(C)C)C(C)C` (some centres unmarked) [FAM-HNP401] (Ac-SGQVPWEEPYYVVKKSSGGC(Fluorescein(5-Mal))-NH2) the “concentration giving optimal nerve contrast” value (topical 1 to 375 μM) was 50 to 100 µM and the “concentration at which signal from human nerve saturates” value (topical up to 375 μM) was at most 100 µM.

Reference: patent publication US12533425B2, “Methods and systems using peptides for targeting and mapping human nerves in image guided surgery, diagnostics and therapeutic delivery” (ALUME BIOSCIENCES, INC., priority 2019, dated 2026)
